From US8658646B2, “Pyrrolopyrazine kinase inhibitors” (Hoffmann-LaRoche Inc., priority 2011, dated 2014)

Amino acid sequences for entries named in this document (tags omitted). Residues count along the entry.
UniProt P52333, 822-1111 limits assumed: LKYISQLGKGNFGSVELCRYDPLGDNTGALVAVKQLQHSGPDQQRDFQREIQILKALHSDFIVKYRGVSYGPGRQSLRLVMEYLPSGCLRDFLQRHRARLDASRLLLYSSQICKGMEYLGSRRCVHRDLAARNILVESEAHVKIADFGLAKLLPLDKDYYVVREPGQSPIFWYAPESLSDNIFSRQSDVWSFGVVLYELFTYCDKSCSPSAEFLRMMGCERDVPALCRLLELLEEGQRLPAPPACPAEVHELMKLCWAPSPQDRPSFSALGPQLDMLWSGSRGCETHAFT

Target: T1, JAK3: Recombinant human kinase domain (Homo sapiens, UniProt P52333)
T1 construct: JAK3: Recombinant human kinase domain from Millipore (Cat #14-629) or prepared; purchased Millipore 14-629
Test: Determination of IC50 of Janus Kinase (JAK) inhibition, radioactive end-point 33P-ATP assay, JAK3
Format: biochemical
Details: ATP 1.5 uM, peptide 50 uM, 20 minutes, read-out: JAK3-INHIB-DR/v1~NO ADDITIVE~Enzyme_Conc = 100

Row | SMILES | IC50
1 | C[C@@H](NC(=O)c1c[nH]c2ncc(-c3nn(C)c4cc(C(C)(C)C)ccc34)nc12)C(=O)N1CC(C#N)C1 [Example I-81, 2-(6-tert-Butyl-1-methyl-1H-indazol-3-yl)-5H-pyrrolo[2,3-b]pyrazine-7-carboxylic acid [(R)-2-(3-cyano-azetidin-1-yl)-1-methyl-2-oxo-ethyl]-amide] | 10 nM
2 | C[C@@H](NC(=O)c1c[nH]c2ncc(-c3nn(C)c4ccc(Cl)cc34)nc12)C(=O)N1CC(C#N)C1 [Example I-5, 2-(5-Chloro-1-methyl-1H-indazol-3-yl)-5H-pyrrolo[2,3-b]pyrazine-7-carboxylic acid [(R)-2-(3-cyano-azetidin-1-yl)-1-methyl-2-oxo-ethyl]-amide] | 3 nM
3 | C[C@@H](NC(=O)c1c[nH]c2ncc(-c3nn(C)c4cc(Cl)ccc34)nc12)C(=O)N1CC(C#N)C1 [Example I-4, 2-(6-Chloro-1-methyl-1H-indazol-3-yl)-5H-pyrrolo[2,3-b]pyrazine-7-carboxylic acid [(R)-2-(3-cyano-azetidin-1-yl)-1-methyl-2-oxo-ethyl]-amide] | 1.05 nM

The next molecules have a lower IC50 than those just listed; values first:

Row | IC50 | SMILES
4 | 0.725 nM | C[C@@H](NC(=O)c1c[nH]c2ncc(-c3nn(C)c4cc(C#N)ccc34)nc12)C(=O)N1CC(C#N)C1 [Example I-22, 2-(6-Cyano-1-methyl-1H-indazol-3-yl)-5H-pyrrolo[2,3-b]pyrazine-7-carboxylic acid [(R)-2-(3-cyano-azetidin-1-yl)-1-methyl-2-oxo-ethyl]-amide]
5 | 0.635 nM | C[C@@H](NC(=O)c1c[nH]c2ncc(-c3nn(C)c4cc(F)ccc34)nc12)C(=O)N1CC(C#N)C1 [Example I-83, 2-(6-Fluoro-1-methyl-1H-indazol-3-yl)-5H-pyrrolo[2,3-b]pyrazine-7-carboxylic acid [(R)-2-(3-cyano-azetidin-1-yl)-1-methyl-2-oxo-ethyl]-amide]
